## Ab-14 light chain CDR variants: yeast mating affinities

Antigen: PDVDLGDISGINAS, a 14-residue peptide of the SARS-CoV-2 spike HR2 region.

Ab-14 is the parent antibody, in scFv form: VH, then a (GGGGS)3 linker, then VL. The heavy chain is unchanged in all variants.
VH: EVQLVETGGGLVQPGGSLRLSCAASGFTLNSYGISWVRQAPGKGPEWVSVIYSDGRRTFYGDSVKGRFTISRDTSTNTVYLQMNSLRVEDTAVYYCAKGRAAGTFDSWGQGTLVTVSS
VL: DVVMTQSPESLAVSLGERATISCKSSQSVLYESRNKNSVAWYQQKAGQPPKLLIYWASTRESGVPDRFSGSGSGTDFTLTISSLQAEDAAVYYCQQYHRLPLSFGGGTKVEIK

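The parent was found by panning a naive human phage display library on the peptide. AAYL50 was designed without a model: most single CDR substitutions and a random sample of double and triple ones. The scFvs were displayed on barcoded MATa yeast, the peptide on MATalpha yeast. Binding brings cells together so that they mate, and sequencing counts the barcode pairs among the diploids. Scores were corrected for input abundance and mapped to Kd with protein pairs of known affinity run in the same pool. Mating was done three times.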

Each variant is given by its three light chain CDRs, as the data file delimits them; those of the parent are KSSQSVLYESRNKNSVA, WASTRES, QQYHRLPLS.
All variants listed here change A40 of the VL, counted from its first residue.
The Kd shown is the geometric mean over detected replicates; a lower Kd is a better binder.
A pair that was not seen in any replicate is written "no signal"; this usually means weak binding, but a binder can also be missed.
Parent in this assay: reference entry 4.4 nM, copy in this library 48 nM.
Three control strains display no target. For library AAYL50, 18% of the pairings with them gave a signal, with a median of 15 µM and one signal in twenty below 970 nM, so weak values seen in few replicates may be background. The control count says in how many pairings with the empty strains this scFv gave a signal.

- KSSASVLYESRNKNSVQ / WASTRES / QQYKRLPLS = no signal (0 of 3 replicates; controls 0 of 9)
- KSSQSRLYESRNKNSVG / WASTRES / QEYHRLPLS = no signal (0 of 3 replicates; controls 1 of 9)
- KSSQSVLYESRNGNSVG / WASTRES / QQYERLPLS = 26 µM (2 of 3 replicates; controls 2 of 9)
- KSSQSVLYESRNKNSVP / WASTRES / QQYHRLPLS = no signal (0 of 3 replicates; controls 0 of 9)
- KSSQSVLYESRNKNSVN / WASTRES / EQYHRLMLS = no signal (0 of 3 replicates; controls 3 of 9)
- KSSQSVLYESRNKNSVS / WASTRQS / QQYHRLPLS = 35 µM (2 of 3 replicates; controls 2 of 9)
- KSSQSVLYESRNKNSVV / WDSTRES / QQYHRLFLS = no signal (0 of 3 replicates; controls 0 of 9)
- KSSQSVLYESRNKNSVP / WALTRES / QQYHRLPGS = no signal (0 of 3 replicates; controls 1 of 9)
- KSSQSVLYESRNKNRVI / WASTRES / QQYHRLPLS = 8.3 µM (1 of 3 replicates; controls 3 of 9)
- KSSQSVLYEIRNKKSVM / WASTRES / QQYHRLPLS = 120 µM (1 of 3 replicates; controls 3 of 9)
- KSRQSVLYESRNKNSVE / WASTRES / QQYHRLPLS = no signal (0 of 3 replicates; controls 1 of 9)
- KSSQSVLYEARNKNSVE / WASTRES / QQYHRQPLS = 20 µM (1 of 3 replicates; controls 0 of 9)
- KSSQSVLYESRNKNSVD / WAHTRES / QQYHRWPLS = 16 µM (1 of 3 replicates; controls 1 of 9)
- KSSQSDLYESRNKNEVD / WASTRES / QQYHRLPLS = 8.1 µM (1 of 3 replicates; controls 2 of 9)
- KSIQSVLYESRNKNSVQ / WASTRES / QQYHRLPLS = 16 µM (1 of 3 replicates; controls 3 of 9)
- KSSQWVLYESRNKNSVW / WASTRES / CQYHRLPLS = no signal (0 of 3 replicates; controls 0 of 9)
- KSSQSVLYEIRNKNSKP / WASTRES / QQYHRLPLS = no signal (0 of 3 replicates; controls 0 of 9)
- KSSQSVLYESRNHNSVW / WASTRKS / QQYHRLPLS = 2.1 µM (1 of 3 replicates; controls 2 of 9)
- KSSQSVLYESRNKNSVT / WFSTRES / QQYHRLPLS = 2.3 µM (1 of 3 replicates; controls 3 of 9)
- KSSQSVLYEFRNKNSVV / WASTRES / QQYHELPLS = no signal (0 of 3 replicates; controls 0 of 9)
- KSSQSVHYEWRNKNSVM / WASTRES / QQYHRLPLS = no signal (0 of 3 replicates; controls 2 of 9)
- KSSISVLYESRNKNSVS / WASTYES / QQYHRLPLS = 13 µM (1 of 3 replicates; controls 0 of 9)
- KGSQSVLYESRNKNSVD / WASTRES / QQYHRIPLS = no signal (0 of 3 replicates; controls 1 of 9)
- KSSQSVLYESRNKNSVI / SASTRES / QQYHRRPLS = 26 µM (2 of 3 replicates; controls 4 of 9)
- KSSQSVHYESRNKNSVC / WASTRES / QQYHRLPLS = 2.6 µM (3 of 3 replicates; controls 0 of 9)
- KSSQHVLYESRNKNSVT / WASTRES / QQYHRLPLS = 540 nM (1 of 3 replicates; controls 3 of 9)
- KSSQSVLYESRNKNSVS / DASTRES / QQWHRLPLS = 1.8 µM (1 of 3 replicates; controls 0 of 9)
- KSSQSVLYVSRNKNSVP / WASTRES / QQYNRLPLS = 79 µM (3 of 3 replicates; controls 3 of 9)
- KSSQSVLYESRNKNSVS / WESTRES / QQYHRLPLS = 22 µM (3 of 3 replicates; controls 5 of 9)
- KSSQSVLYESRNKNSVI / WASTRES / QQYHRLPDS = no signal (0 of 3 replicates; controls 0 of 9)
- KSSISVLYESRNKNSVC / WASTRYS / QQYHRLPLS = 940 nM (3 of 3 replicates; controls 2 of 9)
- KSSQSVLEESRNKNSVG / WASTRES / QQYYRLPLS = 610 nM (3 of 3 replicates; controls 1 of 9)
- YSSQSVLYESRNKNSVP / WARTRES / QQYHRLPLS = no signal (0 of 3 replicates; controls 2 of 9)
- KSSQSVLYESRNKNSVS / WASTRES / QQYHRLPLS = 7.8 µM (3 of 3 replicates; controls 4 of 9)
- KSSQSVLYESRNKNSVH / QASTRES / EQYHRLPLS = no signal (0 of 3 replicates; controls 1 of 9)
- KPSQSVLYESRNKNSVW / WASTYES / QQYHRLPLS = 330 µM (3 of 3 replicates; controls 5 of 9)

From the list, the first 3 with no signal in any replicate:

{"CDR-L1": "KSSASVLYESRNKNSVQ", "CDR-L2": "WASTRES", "CDR-L3": "QQYKRLPLS", "apparent Kd": "no signal", "replicates with signal": "0 of 3", "control signals": "0 of 9"}
{"CDR-L1": "KSSQSRLYESRNKNSVG", "CDR-L2": "WASTRES", "CDR-L3": "QEYHRLPLS", "apparent Kd": "no signal", "replicates with signal": "0 of 3", "control signals": "1 of 9"}
{"CDR-L1": "KSSQSVLYESRNKNSVP", "CDR-L2": "WASTRES", "CDR-L3": "QQYHRLPLS", "apparent Kd": "no signal", "replicates with signal": "0 of 3", "control signals": "0 of 9"}

Values reported by Engelhart et al. 2022, doi:10.1038/s41597-022-01779-4 (FLAb copy).